According to PubChem BioAssay AID929 (National Center for Advancing Translational Sciences (NCATS), 2007):
Only a part is listed here, and it is no random draw. Inconclusive results are not listed. Activity calls are given as the source filed them. The call rests on the fitted dose curve; in most records, active means well fitted inhibition curve with a large enough effect in the main read-out, with a control signal flat; inconclusive means small, poorly fitted or top-dose-only effect, or a change in a side signal; inactive means no such curve, though single readings can be large or run the other way.

Amino acid sequences for entries named in this document (tags omitted). Residues count along the entry.
UniProt P29466, 120-297 limits assumed: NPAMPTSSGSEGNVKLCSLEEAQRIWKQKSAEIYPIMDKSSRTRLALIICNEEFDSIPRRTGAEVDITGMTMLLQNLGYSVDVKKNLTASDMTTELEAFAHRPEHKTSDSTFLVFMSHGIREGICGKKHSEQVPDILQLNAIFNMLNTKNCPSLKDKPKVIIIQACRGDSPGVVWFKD
UniProt P29466, 317-404 limits assumed: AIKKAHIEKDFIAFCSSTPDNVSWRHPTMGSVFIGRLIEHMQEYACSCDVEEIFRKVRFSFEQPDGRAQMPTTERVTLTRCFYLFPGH

biological target: Caspase-1 (Homo sapiens) (UniProt P29466); assay: Concentration-Response Counterscreen for Redox Active Inhibitors of Caspase-1: Cysteine; details: recombinant caspase-1, fluorogenic substrate, cysteine buffer; at 57.5 µM (top of the series)
Excerpt: NIH Molecular Libraries Screening Centers Network [MLSCN]
NIH Chemical Genomics Center [NCGC]
PI Name: Dr. James Wells,
Dr. Enrique Perez-Paya, Dr.Janice Williams, Dr. Dennis Wolan, a person
The caspases (Cysteine Aspartyl Protease) comprise a related family of 14 dimeric proteases that are critical mediators of apoptosis (programmed cell death) and inflammation. The caspases represent an important class of drug targets for stroke, ischemia, cancer and inflammatory diseases. […] One goal of this project was to identify compounds that act as allosteric inhibitors via stabilizing the procaspase form of the enzyme. […]
The biochemical assay was configured using purified caspase 1 at a high enzyme concentration to promote formation of the homodimers and thus facilitate the identification of allosteric inhibitors. […] After initiation of the assay with substrate the plates were rapidly read using an automated robotic system (Kalypsys, Inc.) to maintain consistent timing. […] Product formation was also measured after 1 hour. […]
Caspase 1 was prepared in buffer (50 mM HEPES pH 7.5, 50 mM KCl, 200 mM NaCl, 10 mM Cys (Aldrich cat# 861677), 0.1% CHAPS) at a concentration of 66.6 nM and 3 uL was dispensed to all wells using black solid Kalypsys 1536-well plates. […] The plates were then exposed using 405 nm excitation/520 nm emission filters for 4 sec and read at 20 sec intervals for 3 min. […]

| SMILES | activity change, negative = inhibition |
| --- | --- |
| C/C1=C2N=C(/C=C3N=C(/C(C)=C4\[N-][C@@](C)([C@H]5N=C1[C@@](C)(CCC(=O)NC[C@H](C)OP(=O)([O-])O[C@@H]1[C@H](O)[C@H](n6cnc7cc(C)c(C)cc76)O[C@@H]1CO)[C@@H]5CC(N)=O)[C@](C)(CC(N)=O)[C@H]4CCC(N)=O)[C@@](C)(CC(N)=O)[C@@H]\3CCC(N)=O)C(C)(C)[C@@H]/2CCC(N)=O.[C-]#N.[Co+3] | inactive: -21.7% |
